These are literature values, as cited in paper PMC7890489, “Study on pharmacological properties and cell absorption metabolism of novel daidzein napsylates” (Royal Society Open Science, 2021).

For this data set the following is noted: cited from earlier work.

Consider sodium daidzein sulphonate, for which the “solubility in water” value is listed as “easily soluble in water”.
